Measured values published in article PMC3529200 (Bioorganic & medicinal chemistry letters, 2010).

Chains of the proteins cited; added tags and fusions are not shown. Lines headed by an entry give the natural chain unless they say otherwise; changes in a name come on top.
UniProt P34914: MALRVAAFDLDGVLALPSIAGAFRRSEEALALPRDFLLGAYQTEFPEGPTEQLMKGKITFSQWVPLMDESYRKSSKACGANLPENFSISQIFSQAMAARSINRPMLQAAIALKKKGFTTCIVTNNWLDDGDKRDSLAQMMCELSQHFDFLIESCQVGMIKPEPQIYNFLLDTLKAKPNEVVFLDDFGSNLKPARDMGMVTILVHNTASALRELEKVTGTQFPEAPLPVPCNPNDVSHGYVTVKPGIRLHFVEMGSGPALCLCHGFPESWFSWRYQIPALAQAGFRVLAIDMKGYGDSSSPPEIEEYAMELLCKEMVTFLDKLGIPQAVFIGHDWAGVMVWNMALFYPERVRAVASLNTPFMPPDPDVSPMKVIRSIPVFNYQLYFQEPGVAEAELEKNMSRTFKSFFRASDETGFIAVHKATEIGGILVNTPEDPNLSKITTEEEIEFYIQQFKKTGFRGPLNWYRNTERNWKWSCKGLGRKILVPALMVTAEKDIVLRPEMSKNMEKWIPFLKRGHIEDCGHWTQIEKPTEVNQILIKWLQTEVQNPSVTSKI

Experiments:
[1] = biological target: T1, sEH (Mus musculus, UniProt P34914); conditions: DIO mice, 100 mg/kg twice a day, up to 7 hours post administration
[2] = biological target: T1, sEH; test: in vivo; conditions: po, read-out: inhibition of blood sEH activity
[3] = test system: sEH; conditions: humans, once a day and twice a day dosing; cited from earlier work
[4] = test system: sEH; conditions: read-out: sEH IC50; cited from earlier work

Row | whole blood sEH activity [1] | inhibition at 100 mg/kg [2] | Molecule | inhibition of blood sEH [3] | IC50 [4]
1 | undetectable | ≥ 90% | CC(=O)N1CCC(NC(=O)NC23CC4CC(CC(C4)C2)C3)CC1 [Compound 14a, 1-(1-Acetyl-piperidin-4-yl)-3-adamantan-1-yl-urea] | greater than 90% | –
2 | – | – | adamantyl ureido dodecanoic acid [AUDA] | – | ~3 nM
3 | – | – | dicyclohexyl urea [DCU] | – | ~52 nM
